## Apparent affinities of Ab-91 variants for a coronavirus HR2 peptide

Target peptide (SARS-CoV-2 spike, HR2 region): PDVDLGDISGINAS

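The starting antibody came from a phage panning campaign against this peptide. The library (AAYL51) carries one to three amino acid substitutions per variant, with no insertions or deletions. Affinity was read by AlphaSeq, a pooled yeast mating assay with surface-displayed partners. The frequency of each diploid, read from paired DNA barcodes, reflects how well the two displayed proteins bind. The ratio of observed to expected reads was calibrated, replicate by replicate, on BCL2-family standards whose Kd was known from biolayer interferometry. The assay was run in three technical replicates.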

Parent scFv Ab-91: VL joined to VH by three GGGGS repeats. Changes lie in the heavy chain CDRs alone.
VL: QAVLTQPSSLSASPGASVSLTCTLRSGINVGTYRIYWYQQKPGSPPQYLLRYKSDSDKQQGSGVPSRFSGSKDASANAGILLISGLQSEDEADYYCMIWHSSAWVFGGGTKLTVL
VH: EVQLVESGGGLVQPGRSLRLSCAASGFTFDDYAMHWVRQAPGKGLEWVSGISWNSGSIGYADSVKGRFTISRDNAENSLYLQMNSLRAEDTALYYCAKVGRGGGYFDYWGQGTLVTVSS

Each variant is given by its three heavy chain CDRs, as the data file delimits them; those of the parent are GFTFDDYAMH, GISWNSGSIGYADSVK, VGRGGGYFDY.
This list gathers variants with a substitution at D30 (VH, numbered from residue 1).
Kd is apparent (estimated from mating counts) and averaged on the log scale over replicates with a signal. Smaller is tighter.
"nd" marks a missing value. The strain was present, yet no cells mated with the target were sequenced in any replicate, which points to weak or no binding.

Variant GFTFSDYAMH | GISWCSGSIGYADSVK | VGRSGGYFDY showed 110 µM (3 of 3 replicates). With GFGFQDYAMH | GISWNSGSIGHADSVK | VGRGGGYFDY the result was nd (0 of 3 replicates). With GFTFQDYAMH | GISWRSGSIGYADSVI | VGRGGGYFDY the result was 13 µM (2 of 3 replicates). Variant GFTFSDYAMH | GISWNSGRIYYADSVK | VGRGGGYFDY gave 270 µM (1 of 3 replicates). Variant GFTFSDYAMH | GISWNSGSIGYADSVK | VGRWGGYFRY showed 29 µM (2 of 3 replicates). For GFTFYDYAMH | GISWNSGSIGWADSVK | WGRGGGYFDY, the assay gave 44 µM (1 of 3 replicates). Variant GFTFRDYAMH | GISWPSGSIGYADSVK | VGRGGGYNDY gave 180 µM (2 of 3 replicates).

Variant GFTFWDYAMH | GISWNRGSIGYADSVK | VGRGGGYFYY showed 120 µM (2 of 3 replicates). For GFTFPDYAMK | GISWNSSSIGYADSVK | VGRGGGYFDY, the assay gave 130 µM (2 of 3 replicates). Variant GFTFRDYAMH | GISWNSGSIGYADSVK | VGRGGIYVDY gave 1.4 µM (1 of 3 replicates). For NFTFGDYAMH | EISWNSGSIGYADSVK | VGRGGGYFDY, the assay gave nd (0 of 3 replicates). Variant GFTFEDYAMH | GISWNSGSIGYSDSVK | VGRGGGYFDY gave 5.2 nM (3 of 3 replicates). Variant GFTFPDVIMH | GISWNSGSIGYADSVK | VGRGGGYFDY gave nd (0 of 3 replicates). With GFTFPDNAMH | GISWNSGSIGRADSVK | VGRGGGYFDY the result was nd (0 of 3 replicates).

With GFTFRDYAMH | GTSWNSGSIGFADSVK | VGRGGGYFDY the result was nd (0 of 3 replicates). Variant GNTFGDYAMH | GISWNHGSIGYADSVK | VGRGGGYFDY gave 48 µM (1 of 3 replicates). Variant GATFWDYAMH | GISWNSGSKGYADSVK | VGRGGGYFDY gave 270 µM (3 of 3 replicates). With KVTFVDYAMH | GISWNSGSIGYADSVK | VGRGGGYFDY the result was nd (0 of 3 replicates). With GFTFGDYAMH | GISWNSQSIGYADSVK | VGRGGGYEDY the result was 2.4 nM (3 of 3 replicates). For GFTFLDYAAH | GISWNSGSIGYADSVW | VGRGGGYFDY, the assay gave 160 µM (1 of 3 replicates). For GFTFPDYAVH | GISWNSGSIGYADSVK | VGRGGGYFDY, the assay gave 28 µM (1 of 3 replicates).

Variant GFTFFDYAMH | GISPNSMSIGYADSVK | VGRGGGYFDY gave 17 nM (3 of 3 replicates). For GFTFGDYAMH | GISWNSGSIGYAYSVF | VGRGGGYFDY, the assay gave 230 nM (3 of 3 replicates). Variant GFTFRDYAMH | GISWNSGSIGYADSVK | VGRGSGYFDY showed nd (0 of 3 replicates). Variant GFTFWDYAMH | GISWNSGSIGYVDSVK | VGRHGGYFDY showed nd (0 of 3 replicates). For GFTFPDSAMH | GISWNSGSIGYADSGK | VGRGGGYFDY, the assay gave nd (0 of 3 replicates). Variant GFTFCDYAMH | GSSWNSGSIGYWDSVK | VGRGGGYFDY showed 1.7 µM (1 of 3 replicates). For GFTFGDYAMA | GISWNSGSIGYADSVY | VGRGGGYFDY, the assay gave 27 µM (1 of 3 replicates).

Variant GFTFFDYAMH | GISWNSGSIGPADSVK | VGRIGGYFDY gave nd (0 of 3 replicates). Variant GFTFLDYAMH | GISDNSGYIGYADSVK | VGRGGGYFDY gave nd (0 of 3 replicates). Variant GFTFLDYAMH | GISWNSGSIGYADSVK | VGQWGGYFDY showed nd (0 of 3 replicates). Variant GFTFPDYAMH | GISWNSGSAPYADSVK | VGRGGGYFDY showed 20 µM (2 of 3 replicates). For GFTFYDYAMH | GISWNSGSIGYADSVK | VLRGGDYFDY, the assay gave 20 nM (3 of 3 replicates). Variant GTTFTDYAMH | GISWNSGSIGYADSVK | VGRGFGYFDY gave nd (0 of 3 replicates). For GFTFLDYAMH | GISWRSGSIGYAFSVK | VGRGGGYFDY, the assay gave nd (0 of 3 replicates).

With GFTFYDYAMH | GISWNSGSCLYADSVK | VGRGGGYFDY the result was 5.5 µM (1 of 3 replicates). For GFTFADYAMH | GISWNSGSIGYWDSVK | VGRGGGYFDY, the assay gave 260 µM (1 of 3 replicates). For GFTFLDYAMH | GISWNSGSIGYADSVK | CGNGGGYFDY, the assay gave 270 µM (1 of 3 replicates). For GFTFGDYAMH | DISWNSGSIGYADSVK | VGRGCGYFDY, the assay gave nd (0 of 3 replicates). Variant GFLFPDYAMH | GISWNSGSIGYADSVK | VGRGGEYFDY gave 20 nM (3 of 3 replicates). Variant GFTFAFYAMH | GISWNSGSIGYADSVK | VGRGGGYFDY gave 4.1 nM (3 of 3 replicates). With GFTFWDYAMH | GISQNSGSIGYAPSVK | VGRGGGYFDY the result was 35 µM (1 of 3 replicates).

Variant GFTFIDYAMH | GISWNSGSIGYAKSVK | VGRGGGYFDY showed nd (0 of 3 replicates). Variant GFTFGDYAMH | GISWNSGSISYADSVK | VGRGGGYFDY showed 490 µM (3 of 3 replicates). Variant GFTFPDYNMH | GISWNSGSIGYADSVK | VGRGGGYFDY showed 120 µM (1 of 3 replicates). Variant GFTFRDYAMH | GISWNIGSIGYADSVK | VGRGRGYFDY gave nd (0 of 3 replicates). Variant GFTLWDDAMH | GISWNSGSIGYADSVK | VGRGGGYFDY showed 2.6 µM (2 of 3 replicates). For GFTFEDYAMH | GISWNSGSIGYAQSVK | VGRGGGYFDA, the assay gave 16 nM (3 of 3 replicates). Variant GFTFQDYAMH | GISWNWGSIGYARSVK | VGRGGGYFDY gave 40 µM (1 of 3 replicates).

For GFTYWDYWMH | GISWNSGSIGYADSVK | VGRGGGYFDY, the assay gave 92 µM (3 of 3 replicates).

Top 4 of the variants detected in all replicates, tightest first:

The variant GFTFGDYAMH | GISWNSQSIGYADSVK | VGRGGGYEDY gave 2.4 nM (3 of 3 replicates).
The variant GFTFAFYAMH | GISWNSGSIGYADSVK | VGRGGGYFDY gave 4.1 nM (3 of 3 replicates).
The variant GFTFEDYAMH | GISWNSGSIGYSDSVK | VGRGGGYFDY gave 5.2 nM (3 of 3 replicates).
The variant GFTFEDYAMH | GISWNSGSIGYAQSVK | VGRGGGYFDA gave 16 nM (3 of 3 replicates).

Three control strains display no target. For library AAYL51, 21% of the pairings with them gave a signal, with a median of 34 µM and one signal in twenty below 1.8 µM, so weak values seen in few replicates may be background.

Reference: Engelhart et al. 2022, doi:10.1038/s41597-022-01779-4. File: FLAb, binding data.